# Only a part is listed here, and it is no random draw. The source made the active and inactive calls.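 How the source made its calls: active means activation above that plate's cutoff, the mean activation of tested compounds plus 3 SD (cut at about 6.6% in these data, passing the limit was not always enough); inactive means the rest.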
# Chains of the proteins cited; added tags and fusions are not shown. Lines headed by an entry give the natural chain unless they say otherwise; changes in a name come on top.
# UniProt P30559: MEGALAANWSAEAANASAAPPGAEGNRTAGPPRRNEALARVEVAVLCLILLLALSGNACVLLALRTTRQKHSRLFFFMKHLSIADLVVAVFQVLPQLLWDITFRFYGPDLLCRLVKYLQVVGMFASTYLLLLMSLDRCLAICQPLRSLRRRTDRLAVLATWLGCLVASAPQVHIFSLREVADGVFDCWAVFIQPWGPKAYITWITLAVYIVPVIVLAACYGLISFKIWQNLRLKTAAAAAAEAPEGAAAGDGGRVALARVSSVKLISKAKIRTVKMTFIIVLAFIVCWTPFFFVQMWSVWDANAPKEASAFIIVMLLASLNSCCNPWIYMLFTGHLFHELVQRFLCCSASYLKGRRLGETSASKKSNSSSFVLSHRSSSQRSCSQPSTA
# Target: Oxytocin receptor (Homo sapiens) (UniProt P30559)
# Assay: human OXTR potentiators, primary screen, fluorescence, CHO-OTR cells, Fluo-8 calcium (AID 2445);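 further: 100% uses oxytocin at 75 nM as the full agonist control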
# Conditions: Fluo-8 calcium fluorescence, potentiator mode, at 3 µM, stronger effect = higher value, 0% = oxytocin EC15, 100% = EC100
row,SMILES,activation
1,C[C@H]1OP(=O)(Oc2ccccc2)[C@H](O)[C@H](O)[C@H]1N=[N+]=[N-] (stereo not given in full),inactive: -1.6%
2,O=P(Nc1nc2ccccc2s1)(c1ccccc1)c1ccccc1,inactive: -0.38%
3,CN(C)C1(CNC(=O)c2ccc(Cl)c(S(N)(=O)=O)c2)CCCCC1,inactive: -3.05%
4,O=P(Nc1ccccn1)(c1ccc(Br)cc1)c1ccc(Br)cc1,inactive: 6.07%
5,c1nnnn1CCn1cnnn1,inactive: -0.11%
6,O=P(Nc1nccs1)(c1ccccc1)c1ccccc1,inactive: -3.96%
7,CC(C)C(=O)NC(Sc1ccccc1)C(Cl)(Cl)Cl (stereo not given),inactive: 0.42%
8,CC1(CBr)Cn2c(nc3ccccc3c2=O)S1 (stereo not given),inactive: -9.17%
9,O=[As](O)(c1ccccc1Br)c1ccccc1Br,inactive: -9.43%
10,CC(C)/C=N\N=C(\N)N[N+](=O)[O-],inactive: -13.3%
11,COc1ccccc1CNC(=O)COC(=O)C(O)(c1ccccc1)c1ccccc1,inactive: -11.2%
12,CC(C)(C)C(=O)NC(Sc1ncccn1)C(Cl)(Cl)Cl (stereo not given),inactive: 0.19%
13,Clc1n[nH]nc1-c1nn[nH][15n]1,inactive: -3.38%
14,CN(CCCl)Cc1cc(Cl)c(NC2=NCCN2)c(Cl)c1,inactive: 2.87%
15,CCOP(=O)(Nc1ccc(C)cn1)OCC,inactive: -5.44%
16,CCOP(=O)(NC(=NC(C)c1ccccc1)NC(C)c1ccccc1)OCC (stereo not given),inactive: -11.5%
17,CCC1=CC2Cc3nc4ccc(Cl)cc4c(N)c3C(C1)C2 (stereo not given),inactive: -13%
18,O=P1(Nc2ccccn2)COc2ccccc2OC1,inactive: -20.5%
19,NS(=O)(=O)c1cccc(NC(=O)COC(=O)C(O)(c2ccccc2)c2ccccc2)c1,inactive: -0.53%
20,O=P1(Nc2ccc(Br)cn2)COc2ccccc2OC1,inactive: -7.64%
21,Cc1ccc(OCC(=O)OC2CN3CCC2CC3)cc1 (stereo not given),inactive: 0.43%
22,O=[As](O)(c1cccs1)c1cccs1,inactive: -10.9%
23,Nc1cccc([As](=O)(O)c2ccccc2)c1,inactive: -1.86%
24,O=P1(Nc2ncccn2)COc2ccccc2OC1,inactive: -7.71%
25,O=C(/C=C/c1ccccc1)OC1CN2CCC1CC2 (stereo not given),inactive: -16.9%
26,CN(C)C1(CNC(=O)c2ccc(S(C)(=O)=O)cc2)CCCCC1,inactive: -0.33%
27,Cc1ccc(C(=O)OC2CN3CCC2CC3)cc1 (stereo not given),inactive: -0.22%

row,SMILES,activation
1,CC1CCC(C(C)C)C(OP(=O)(Nc2ccccn2)c2ccccc2)C1 (stereo not given),inactive: -11%
2,Cc1nn(-c2ccccc2)c2c1P(=O)(N1CCOCC1)N(C)C(c1ccccc1)=N2 (stereo not given),inactive: -3.23%
3,CN(C(=O)Cc1ccc(Cl)c(Cl)c1)[C@H]1CC[C@@]2(CCCO2)C[C@@H]1N1CCCC1,inactive: -0.98%
4,CN(C)C(=O)c1cc([N+](=O)[O-])cc2c1-c1c(cc([N+](=O)[O-])cc1[N+](=O)[O-])C2=O,inactive: -9.28%
5,O=[N+]([O-])c1ccc2c(c1)nnn2O,inactive: 0.22%
6,CCOP1(=S)c2c(C)nn(CCC#N)c2N=C(c2ccc(F)cc2)N1C (stereo not given),inactive: 4.14%
7,CN(C(=O)Cc1ccccc1)[C@@H]1CC[C@]2(CCCO2)C[C@H]1N1CCCC1,inactive: -3.99%
8,N#CCCN(C(=O)COC(=O)C(O)(c1ccccc1)c1ccccc1)c1ccc(F)cc1,inactive: -9.2%
9,NC(=O)Nc1ccc([As](=O)(O)O)cc1,inactive: 1.34%
10,O=C(O)COc1ccc([As](=O)(O)O)cc1[N+](=O)[O-],inactive: -9.66%
11,Nc1ccccc1[As](=O)(O)c1ccccc1,inactive: -2.59%
12,CS(=O)(=O)c1cc([N+](=O)[O-])c2no[n+]([O-])c2c1,inactive: -1.86%
13,O=P(Nc1nccs1)(c1ccccc1)c1nc2ccccc2s1 (stereo not given),inactive: -0.84%
14,O=P(Nc1nccs1)(Oc1ccccc1)Oc1ccccc1,inactive: 0.08%
15,CCOP1(=S)c2c(C)nn(CCC#N)c2N=C(c2ccccc2F)N1C (stereo not given),inactive: 1.82%
16,CCOP(=O)(Nc1cccc2ccccc12)OCC,inactive: 5.41%
17,COc1cc(C2NCCC3(OCCO3)C2(C)C)cc(OC)c1OC (stereo not given),inactive: 1.58%
18,CCCOP(=S)(Nc1nc(N)cc(=O)[nH]1)OCCC,inactive: -11.4%
19,Cc1ccc(NCCc2c([N+](=O)[O-])cc([N+](=O)[O-])cc2[N+](=O)[O-])cc1,inactive: -1.16%
20,Nc1cccc2c([As](=O)(O)O)cccc12,inactive: -8.49%
21,O=[As](O)(c1cccc(O)c1)c1cccc(O)c1,inactive: 3.48%
22,Cc1cccc(OCC(=O)OC2CN3CCC2CC3)c1 (stereo not given),inactive: -9.88%
23,CS(=O)(=O)c1ccc(Cl)c(NC(=O)COC(=O)C(O)(c2ccccc2)c2ccccc2)c1,inactive: -14.3%
24,COc1cc(C(=O)NCC2(N3CCOCC3)CCCCC2)cc(Cl)c1OC(C)C,inactive: -14.3%
25,O=[As](O)(O)c1cccnc1,inactive: 2.42%
26,O=C(OC1CN2CCC1CC2)c1ccc(Cl)cc1 (stereo not given),inactive: -1.88%
27,COc1ccc(N/C(=N/P(=O)(N2CCOCC2)N2CCOCC2)N2CCOCC2)cc1,inactive: -0.07%

row,SMILES,activation
1,COc1cc(I)ccc1[As](=O)(O)O,inactive: -3.58%
2,COc1ccc2nc(NP(=O)(c3ccccc3)c3ccccc3)sc2c1,inactive: -5.83%
3,Cc1cc(=O)[nH]c(N[N+](=O)[O-])n1,inactive: -5.67%
4,O=C(OC1CN2CCC1CC2)C12CC3CC(CC(C3)C1)C2 (stereo not given),inactive: -4.54%
5,Cc1c2c(nc3ccccc13)SC(C(Cl)Cl)C2 (stereo not given),inactive: 6.65%
6,O=[N+]([O-])c1cc([N+](=O)[O-])c(-c2ccn[nH]2)s1,inactive: -7.1%
7,CCN(CC)C(=S)SC(NC=O)C(Cl)(Cl)Cl (stereo not given),inactive: 6.81%
8,CC(C)NC(=O)NP(=O)(Oc1ccccc1)Oc1ccccc1,inactive: 0.22%
9,CC(C)c1ccc(OP(=O)(Nc2ccccn2)Oc2ccccc2F)cc1 (stereo not given),inactive: -1.84%
10,ClCCSc1nnc(-c2cccnc2)o1,inactive: -4.4%
11,Cc1ccc2nc3c(c(C)c2c1)CC(C(Cl)Cl)S3 (stereo not given),inactive: -13.9%
12,Cc1ccc(OP(=O)(Nc2ccc([N+](=O)[O-])cn2)Oc2ccc(C)cc2)cc1,inactive: -8.64%
13,COc1cc(C(=O)NCC2(N3CCOCC3)CCCCC2)ccc1OCC(C)C,inactive: -2.51%
14,C[As](=O)(O)c1cccc(C(=O)O)c1,inactive: -11.4%
15,O=[As](O)(c1ccc(O)cc1)c1ccccc1O,inactive: 2.25%
16,Cc1cc(SC(NC=O)C(Cl)(Cl)Cl)ncn1 (stereo not given),inactive: -16.7%
17,O=P(Nc1ccccn1)(c1cccc2ccccc12)c1cccc2ccccc12,inactive: -9.55%
18,CCOC(=O)Nc1cccc([As](=O)(O)O)c1,inactive: -9.56%
19,Cc1cc(SC(NC(=O)c2ccccc2)C(Cl)(Cl)Cl)nc(C(C)C)n1 (stereo not given),inactive: -0.49%
20,CCOC(=O)Nc1ccc([As](=O)(O)O)c(O)c1,inactive: -3.55%
21,CCC(C)N(CC(C)C)C(=S)SC(NC(C)=O)C(Cl)(Cl)Cl (stereo not given),inactive: -10.6%
22,CCOC(=O)c1ccc(NC(=O)C(C)(CCl)SC)cc1 (stereo not given),inactive: -13.9%
23,O=C(OC1CN2CCC1CC2)c1cccc([N+](=O)[O-])c1 (stereo not given),inactive: 0.94%
24,O=C(Nc1ccncc1[N+](=O)[O-])c1ccc([N+](=O)[O-])cc1[N+](=O)[O-],inactive: -8.66%
25,O=C(COc1ccccc1)OC1CN2CCC1CC2 (stereo not given),inactive: 1.85%
26,COP1(=S)c2c(C)nn(CCC#N)c2N=C(c2ccc(F)cc2)N1C (stereo not given),inactive: -2.99%

# From PubChem BioAssay AID2445 (The Scripps Research Institute Molecular Screening Center, 2010)
